Literature values as cited in US20040029953A1, “Use of neuropeptide-y antagonists in treatment of alcoholism” (priority 2000, published 2004).

Protein sequences, listed by entry. Tags and fused reporters are not part of them. Lines headed by an entry give the natural chain unless they say otherwise; changes in a name come on top.
UniProt P25929, whole entry: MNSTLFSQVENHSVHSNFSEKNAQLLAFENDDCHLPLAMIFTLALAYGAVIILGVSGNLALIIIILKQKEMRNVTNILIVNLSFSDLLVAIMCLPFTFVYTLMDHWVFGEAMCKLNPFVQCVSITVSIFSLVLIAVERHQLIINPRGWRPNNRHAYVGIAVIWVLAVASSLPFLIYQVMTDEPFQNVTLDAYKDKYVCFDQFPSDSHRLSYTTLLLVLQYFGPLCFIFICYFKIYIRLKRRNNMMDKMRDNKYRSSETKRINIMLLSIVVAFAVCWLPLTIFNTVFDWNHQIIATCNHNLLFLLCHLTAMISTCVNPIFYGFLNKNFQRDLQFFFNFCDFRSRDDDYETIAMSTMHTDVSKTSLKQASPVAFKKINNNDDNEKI
UniProt P49146, whole entry: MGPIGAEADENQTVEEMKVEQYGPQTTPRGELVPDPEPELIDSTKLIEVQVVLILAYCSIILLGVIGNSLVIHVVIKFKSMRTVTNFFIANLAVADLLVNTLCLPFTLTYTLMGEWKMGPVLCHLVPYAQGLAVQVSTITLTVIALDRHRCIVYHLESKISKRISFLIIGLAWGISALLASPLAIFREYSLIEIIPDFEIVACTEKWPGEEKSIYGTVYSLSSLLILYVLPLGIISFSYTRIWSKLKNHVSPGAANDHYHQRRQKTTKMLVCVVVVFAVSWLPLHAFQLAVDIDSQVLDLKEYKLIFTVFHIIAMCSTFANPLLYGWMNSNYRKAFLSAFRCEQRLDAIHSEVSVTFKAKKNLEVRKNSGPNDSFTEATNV
UniProt P50391: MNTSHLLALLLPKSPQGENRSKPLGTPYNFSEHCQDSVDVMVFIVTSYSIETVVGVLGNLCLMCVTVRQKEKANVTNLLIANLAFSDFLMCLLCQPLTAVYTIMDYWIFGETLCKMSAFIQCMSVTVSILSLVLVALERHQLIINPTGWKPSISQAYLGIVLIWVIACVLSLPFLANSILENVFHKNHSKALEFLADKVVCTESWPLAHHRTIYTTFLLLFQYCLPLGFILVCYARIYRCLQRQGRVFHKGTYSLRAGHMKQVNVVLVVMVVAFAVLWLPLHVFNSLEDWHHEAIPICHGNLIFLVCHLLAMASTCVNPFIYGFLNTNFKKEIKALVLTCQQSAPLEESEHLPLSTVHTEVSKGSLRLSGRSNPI

Tests used:
Details in all cases: cited from earlier work
Y1 receptor = Y1 receptor (Homo sapiens, UniProt P25929)
Y2 receptors = Y2 receptors (Homo sapiens, UniProt P49146)
Y4 receptors = Y4 receptors (Homo sapiens, UniProt P50391)
Y5 receptors = target: T1, Y5 receptors (Homo sapiens, UniProt Q15761)
T1 sequence (Q15761 1-445): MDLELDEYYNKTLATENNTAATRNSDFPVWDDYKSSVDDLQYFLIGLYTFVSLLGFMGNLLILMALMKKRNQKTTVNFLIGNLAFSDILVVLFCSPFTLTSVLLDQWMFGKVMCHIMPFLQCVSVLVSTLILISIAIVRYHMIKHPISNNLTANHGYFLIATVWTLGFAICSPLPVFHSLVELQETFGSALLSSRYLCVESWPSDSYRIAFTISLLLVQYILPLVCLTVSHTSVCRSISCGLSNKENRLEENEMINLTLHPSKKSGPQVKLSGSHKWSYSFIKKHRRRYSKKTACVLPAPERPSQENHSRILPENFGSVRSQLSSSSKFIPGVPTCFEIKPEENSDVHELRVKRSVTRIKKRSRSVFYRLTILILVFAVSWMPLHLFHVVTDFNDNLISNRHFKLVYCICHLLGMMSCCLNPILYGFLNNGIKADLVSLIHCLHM

[D-Tyr^27,36,D-Thr^32] Neuropeptide Y (27-36) [D-NPY]
binds with antagonistic properties: affinity for the Y1 receptor subtype (Y1 receptor) | affinity for Y2 receptors (Y2 receptors) | affinity for Y4 receptors (Y4 receptors) | affinity for Y5 receptors (Y5 receptors)
